Source: BindingDB's records for 14684324

Chains of the proteins cited; added tags and fusions are not shown.
UniProt P35372, whole entry: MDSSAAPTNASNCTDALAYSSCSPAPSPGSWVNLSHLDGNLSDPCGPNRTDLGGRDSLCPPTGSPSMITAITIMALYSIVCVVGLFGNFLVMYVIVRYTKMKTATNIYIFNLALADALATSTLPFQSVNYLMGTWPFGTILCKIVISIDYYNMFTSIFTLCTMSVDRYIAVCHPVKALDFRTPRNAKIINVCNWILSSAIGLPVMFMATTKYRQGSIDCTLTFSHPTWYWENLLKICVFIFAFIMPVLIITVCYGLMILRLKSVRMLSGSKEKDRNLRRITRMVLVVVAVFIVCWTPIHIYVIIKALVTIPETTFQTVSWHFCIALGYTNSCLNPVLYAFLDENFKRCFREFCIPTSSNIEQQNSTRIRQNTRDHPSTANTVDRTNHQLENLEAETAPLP
UniProt P41145, whole entry: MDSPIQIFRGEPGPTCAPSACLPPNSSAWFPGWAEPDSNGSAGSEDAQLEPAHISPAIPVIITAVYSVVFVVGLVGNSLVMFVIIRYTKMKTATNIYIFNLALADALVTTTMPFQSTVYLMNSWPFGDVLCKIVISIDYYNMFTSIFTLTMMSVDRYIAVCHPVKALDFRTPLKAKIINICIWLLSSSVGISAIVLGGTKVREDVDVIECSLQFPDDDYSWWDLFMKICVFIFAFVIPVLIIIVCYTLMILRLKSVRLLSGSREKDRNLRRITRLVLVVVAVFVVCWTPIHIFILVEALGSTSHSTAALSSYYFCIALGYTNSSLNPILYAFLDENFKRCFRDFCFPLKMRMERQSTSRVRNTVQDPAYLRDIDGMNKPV
UniProt P41146, whole entry: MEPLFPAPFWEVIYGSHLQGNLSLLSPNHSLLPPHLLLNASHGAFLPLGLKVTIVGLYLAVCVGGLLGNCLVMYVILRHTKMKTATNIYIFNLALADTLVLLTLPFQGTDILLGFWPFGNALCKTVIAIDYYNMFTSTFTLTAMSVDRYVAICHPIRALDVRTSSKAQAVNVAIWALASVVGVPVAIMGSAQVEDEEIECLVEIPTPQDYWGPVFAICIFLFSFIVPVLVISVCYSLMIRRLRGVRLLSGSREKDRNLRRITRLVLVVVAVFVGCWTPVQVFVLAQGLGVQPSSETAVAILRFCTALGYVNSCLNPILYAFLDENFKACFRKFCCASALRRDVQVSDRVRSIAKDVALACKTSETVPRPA

Columns and labels:
Mu-type opioid receptor = Mu-type opioid receptor (Homo sapiens, UniProt P35372); test: Concentration required to stimulate [35S]GTP-gamma-S, binding to human opioid receptor mu 1 in cell membrane
[1] = molecular target: Kappa-type opioid receptor (Homo sapiens, UniProt P41145); test: Concentration required to stimulate [35S]GTP-gamma-S, binding to human opioid receptor kappa 1 in cell membrane
Nociceptin receptor = Nociceptin receptor (Homo sapiens, UniProt P41146); test: Concentration required to stimulate [35S]GTP-gamma-S, binding to human NOP receptor in cell membrane

O=c1[nH]c2ccccc2n1[C@@H]1CCN2[C@H](CCC[C@H]2c2ccccc2)C1
EC50 (Mu-type opioid receptor): 0.198 µM
EC50 [1]: 0.0047 µM
EC50 (Nociceptin receptor): 0.065 µM

O=c1[nH]c2ccccc2n1[C@H]1CCN2[C@H](CCC[C@H]2c2ccccc2)C1
EC50 (Mu-type opioid receptor): > 10 µM
EC50 [1]: > 10 µM
EC50 (Nociceptin receptor): > 10 µM

CCn1c(=O)n([C@H]2CCN3[C@H](CCC[C@H]3c3ccccc3)C2)c2ccccc21
EC50 (Mu-type opioid receptor): > 10 µM
EC50 [1]: > 10 µM
EC50 (Nociceptin receptor): > 10 µM

CCn1c(=O)n([C@@H]2CCN3[C@H](CCC[C@H]3c3ccccc3)C2)c2ccccc21
EC50 (Mu-type opioid receptor): 0.105 µM
EC50 [1]: 0.21 µM
EC50 (Nociceptin receptor): 0.165 µM
